Assay results from patent publication US7939626B2, “Chemoselective ligation” (The Regents of the University of California, priority 2000, dated 2011).

Test system: E. coli
Assay: Incorporation of azide-containing unnatural amino acids into recombinant proteins expressed in E. coli
Settings: methods of Kiick et al., 2000

Compound | incorporation into polypeptides
C[C@H](NN=[N+]=[N-])C(=O)O | have not been successful to date
homoazidoalanine | successfully incorporated into polypeptides
